Data reported in PubChem BioAssay AID1451 (NMMLSC, 2008).
The list shows a part of the results, in another mix than the full data. Some of these compounds have results that are not shown, active ones among them. Activity calls are given as the source filed them.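 How the source made its calls: active means inhibition of pump activity above 50%; inactive means the rest.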

Sequences of proteins named here, by UniProt entry; tags and fusion partners are left off.
UniProt P08183, whole entry: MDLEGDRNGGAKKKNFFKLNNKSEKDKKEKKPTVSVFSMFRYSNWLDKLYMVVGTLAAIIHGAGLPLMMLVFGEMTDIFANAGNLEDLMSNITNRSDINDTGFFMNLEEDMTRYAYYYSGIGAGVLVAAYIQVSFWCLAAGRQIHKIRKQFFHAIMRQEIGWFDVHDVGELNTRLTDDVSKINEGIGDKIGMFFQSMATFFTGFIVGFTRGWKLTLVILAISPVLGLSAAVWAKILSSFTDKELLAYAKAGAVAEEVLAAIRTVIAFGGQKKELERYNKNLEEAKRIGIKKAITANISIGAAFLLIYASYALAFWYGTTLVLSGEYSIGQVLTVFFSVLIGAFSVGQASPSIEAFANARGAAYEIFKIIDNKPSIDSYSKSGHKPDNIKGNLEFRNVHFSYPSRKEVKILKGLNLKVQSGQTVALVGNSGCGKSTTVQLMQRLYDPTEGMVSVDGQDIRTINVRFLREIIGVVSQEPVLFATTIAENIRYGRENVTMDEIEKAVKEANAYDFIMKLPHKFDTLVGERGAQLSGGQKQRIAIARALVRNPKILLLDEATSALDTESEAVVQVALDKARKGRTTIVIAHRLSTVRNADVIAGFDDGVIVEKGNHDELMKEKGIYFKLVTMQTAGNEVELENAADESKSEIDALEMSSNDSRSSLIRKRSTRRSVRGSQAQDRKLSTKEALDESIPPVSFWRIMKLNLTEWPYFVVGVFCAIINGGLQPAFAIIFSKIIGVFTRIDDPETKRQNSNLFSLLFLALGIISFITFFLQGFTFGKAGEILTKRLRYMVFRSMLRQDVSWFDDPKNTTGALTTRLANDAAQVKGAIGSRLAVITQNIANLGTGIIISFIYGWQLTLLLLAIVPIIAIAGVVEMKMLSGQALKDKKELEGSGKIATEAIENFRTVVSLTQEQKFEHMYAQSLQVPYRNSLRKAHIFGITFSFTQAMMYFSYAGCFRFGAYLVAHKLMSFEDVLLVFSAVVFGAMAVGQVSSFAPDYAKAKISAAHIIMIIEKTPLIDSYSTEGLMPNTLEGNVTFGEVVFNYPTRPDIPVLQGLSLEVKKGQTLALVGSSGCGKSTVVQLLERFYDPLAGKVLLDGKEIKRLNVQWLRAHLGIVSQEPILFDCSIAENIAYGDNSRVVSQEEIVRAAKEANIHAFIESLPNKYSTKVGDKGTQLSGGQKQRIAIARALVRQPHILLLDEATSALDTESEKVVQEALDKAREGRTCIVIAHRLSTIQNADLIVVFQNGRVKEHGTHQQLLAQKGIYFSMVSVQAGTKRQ

Molecular target: ATP-dependent translocase ABCB1 (Homo sapiens) (UniProt P08183)
Test: blockers of ABCB1-mediated dye efflux – cell-based, single point, ABCG2 counter-screen, confirmation (AID 1451);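 further: 0% = DMSO and 100% = nicardipine full pump inhibition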
Settings: CCRF-Adr cells, JC-1 efflux, flow cytometry; at 6.6 µM; active compounds read high
Summary of the method: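 material = ABCB1-expressing CCRF-Adr cells | amount = 3 million cells per mL final in well | reagent = JC-1 substrate | compound dosing = single test-compound dose, 6.6 µM final | timing = 10 min exposure, 25 °C | measured by = flow cytometry, 530 nm emission | control set = nicardipine as high control, DMSO as low control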

Q: `CN(C)c1cccc(C(=O)NCC2(N(C)C)CCCCC2)c1` was tested. Which inhibition did it give?
A: inactive: -1.23%
